Test results reported in PubChem BioAssay AID1508624 (National Center for Advancing Translational Sciences (NCATS), 2021).
Only a part is listed here, and it is no random draw. Results filed as inconclusive are left out. Active and inactive are the calls of the source. Calls come from the whole dose curve; as a rule, active = well fitted activation curve with a large enough effect; inconclusive = small, poorly fitted or top-dose-only effect, or another doubt; inactive = no such curve, though single readings can be large or run the other way.

experiment: Primary qHTS for Identification of Small Molecule Activators of Huntingtin-Antisense Promoter Activity; details: HEK293 HTT-AS promoter firefly luciferase reporter, 24 h, percent change from vehicle, -100% = no light; at 57.5 µM (top of the series) unless noted; note: nearly all actives have a fitted effect of over 55% in size
Text: Assay Provider: Russell L. Margolis M.D.
Department Neurology, Johns Hopkins University School of Medicine, Baltimore, MD
Huntington's Disease (HD) is a neurodegenerative disorder caused by a CAG repeat expansion in exon 1 of huntingtin (HTT). While there are currently no disease-modifying treatments for HD, recent efforts have focused on development of nucleotide-based therapeutics to lower HTT expression. As an alternative to siRNA or oligonucleotide methods, we hypothesized that suppression of HTT expression might be accomplished by small molecules that either (1) directly decrease HTT expression by suppressing HTT promoter activity or (2) indirectly decrease HTT expression by increasing the promoter activity of HTT-AS, the gene antisense to HTT that appears to inhibit expression of HTT.
We developed and employed a high throughput screen for modifiers of HTT and HTT-AS promoter activity using luminescent reporter HEK293 cells; of the 52,041 compounds tested, we identified 898 replicable hits. We used a rigorous stepwise approach to assess compound toxicity and the capacity of the compounds to specifically lower huntingtin protein in 5 different cell lines, including HEK293 cells, HD lymphoblastoid cells, mouse primary neurons, HD iPSCs differentiated into cortical-like neurons, and HD hESCs. We found no compounds which were able to lower huntingtin without lowering cell viability in all assays, though the potential efficacy of a few compounds at non-toxic doses could not be excluded.
SEQUENCE No. (1, 2, 3, etc.); […] (e.g., Cells, Incubation, Reagent, etc.); VALUE and DESCRIPTION.
1; Reagent; 4 uL; 2,500 Hek293 luciferase reporter cells per wells
3; Compound; 23 nL; Control inhibitor / compound library
5; Reagent; 2.5 uL; Firefly Luc reagent; Dual-Glo Luciferase Reporter Assay System (Promega)
6; Time; 10 min; room temperature incubation
7; Detection; Luminescence; FLuc
NOTES (numbers refer to sequence above)
1; High-throughput screening, measuring luminescence from a Hek293 luciferase reporter, was performed in 1,536 well white-walled tissue-culture treated plates. 2,500 cells were plated in 4 µL of Opti-MEM per well using a Multidrop Combi Reagent Dispenser (ThermoFisher).
2; Assay plates were cultured for 24 hours.
3; Control inhibitor (PTC124; final concentration of 50 uM) and compound library (at final concentrations of 460 nM - 57.5 uM) were added to the assay plate using the Kalypsis Pintool Robotic System equipped with 1536 pinheads.
4; Cells were then incubated for 24 hours at 37 degrees C prior to luminescence measurements.
5; In all cases, luminescence was measured using the Dual-Glo Luciferase Reporter Assay System (Promega) following the manufacturer's instructions.
6; Room temperature incubation.
7; Luminescence signal was obtained using the PerkinElmer ViewLux plate reader. Results were normalized to vehicle control (0% activity) and zero RLU (-100% activity).

SMILES | activity change, positive = activation
OCCSCCO | inactive: 3.87%
CC1=C2[N-][C@@](C)([C@@H]3N=C(C(C)=C4N=C(C=C5N=C1[C@@](C)(CC(N)=O)[C@H]5CCC(N)=O)C(C)(C)[C@H]4CCC(N)=O)[C@](C)(CCC(=O)NC[C@@H](C)OP(=O)([O-])O[C@H]1[C@@H](O)[C@@H](n4cnc5cc(C)c(C)cc54)O[C@H]1CO)[C@H]3CC(N)=O)[C@@](C)(CC(N)=O)[C@@H]2CCC(N)=O.[C-]#N.[Co+3] | inactive: -9.15% [at 25.1 µM]
CCOP(=O)(CC)Oc1ccc([N+](=O)[O-])cc1 (stereo unspecified) | inactive: -37.5%
Cc1cccc([N+](=O)[O-])c1[N+](=O)[O-] | inactive: -11.2% [at 116 µM]
C/C1=C2N=C(/C=C3N=C(/C(C)=C4\[N-][C@@](C)([C@@H]5N=C1[C@](C)(CCC(=O)NC[C@@H](C)OP(=O)([O-])O[C@H]1[C@@H](O)[C@@H](n6cnc7cc(C)c(C)cc76)O[C@@H]1CO)[C@H]5CC(N)=O)[C@@](C)(CC(N)=O)[C@@H]4CCC(N)=O)[C@@](C)(CC(N)=O)[C@@H]\3CCC(N)=O)C(C)(C)[C@@H]/2CCC(N)=O.[C-]#N.[Co+3] | inactive: -29.8%
O=[N+]([O-])c1cccc([N+](=O)[O-])c1 | inactive: -13.7% [at 116 µM]
